Source: PubChem BioAssay
Most compounds without a hit are left out; they make up all but 0.46% or so of the library.
GIV-Gai inh: inhibitors of GIV GBA-motif binding to rat Galpha-i3. 210,000 tested, 0.42% active. percent of control (FP), % (concentration not given with the values). AID 1224905. Galpha-i3/FITC-GIV peptide fluorescence polarization, 90 min; active compounds read low; scaled: aluminum fluoride 0%, vehicle 100%;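 active = replicate mean at 85% of control or lower, very high polarization wells dropped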;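 note: wells of about 15 µL received 100 nL stock; the first replicate is given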
HCMV NEC inh: cytomegalovirus nuclear egress complex inhibition | HTRF UL50-UL53 interaction, normalized percent inhibition | inhibition, % (test concentration not listed) | 190,000 compounds, 0.15% hits | AID 1918969; in the data active = inhibition above about 27%, passing the limit was not always enough
GIV Gai FP conf: confirmation of inhibitors of GIV binding to rat Galpha-i3; AID 1259350; 580 compounds, 38% hits; FITC-GIV peptide binding to Galphai3, fluorescence polarization; stronger effect = lower value; shares compounds with GIV-Gai inh; fluorescence polarization, mP at 100 µM;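 active = inhibition score of 15 or more, meaning 100 minus mean polarization as percent of control over three replicates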
GIV-Gai AS conf: GIV-Galpha-i3 inhibition, AlphaScreen confirmation | shares compounds with GIV-Gai inh | AlphaScreen Galphai3-GIV binding, purified proteins, 90 min; stronger effect = lower value | AlphaScreen counts at 100 µM | 580 compounds, 39% hits | AID 1259351;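 active = inhibition score at or above a set limit, where the score is 100 minus the three-replicate mean percent of control signal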
Each line names hits and unclear results; the compound was inactive in the other large screens (follow-up assays come after a bar, where they were run).

Cc1[nH]n(-c2ccccc2)c(=O)c1C(c1ccccc1O)c1c(C)[nH]n(-c2ccccc2)c1=O	GIV-Gai inh 67 (no result: HCMV NEC inh) | GIV Gai FP conf inactive | GIV-Gai AS conf 17967
Cc1ccc(C(c2c(C)[nH]n(-c3ccccc3)c2=O)c2c(C)[nH]n(-c3ccccc3)c2=O)cc1	none (no result: HCMV NEC inh)
COc1ccc(C(c2c(C)[nH]n(-c3ccccc3)c2=O)c2c(C)[nH]n(-c3ccccc3)c2=O)cc1OC	GIV-Gai inh 76 (no result: HCMV NEC inh) | GIV Gai FP conf 44 | GIV-Gai AS conf 4694
CCOc1cc(C(c2c(C)[nH]n(-c3ccccc3)c2=O)c2c(C)[nH]n(-c3ccccc3)c2=O)ccc1O	none
COc1ccc(C)cc1NC(=O)c1c(C)cn(C)c1CC(=O)O	none
N#Cc1ccccc1NC(=O)CSC1=NCCS1	none
N#Cc1nc2c(-c3nc4ccccc4s3)c(N)n(CCc3ccccc3)c2nc1C#N	none
CCOc1ccc(Br)cc1S(=O)(=O)n1cccc1	none (no result: GIV-Gai inh)
O=C(C1CC1)N1CCCC1c1nc2ccccc2s1 (stereo not drawn)	none
CCN(CC)C(=O)Cn1cc(/C=C2/C(=O)N(C)c3ccccc32)c2ccccc21	none (no result: HCMV NEC inh)
CCc1cccc2c(/C=C3/C(=O)N(C)c4ccccc43)cn(CC(=O)NC3CCCC3)c12	GIV-Gai inh 80 (no result: HCMV NEC inh) | GIV Gai FP conf 34 | GIV-Gai AS conf inactive
COc1ccc(C2/C(=C(\O)c3ccc(Br)cc3)C(=O)C(=O)N2c2cccc(C(F)(F)F)c2)cc1 (stereo not drawn)	none (no result: HCMV NEC inh)
CCN(C(=O)Cn1cnc2c(sc3ncccc32)c1=O)c1ccccc1	none (no result: HCMV NEC inh)
O=C1C(NS(=O)(=O)c2ccccc2)=C/C(=N\S(=O)(=O)c2ccc(F)cc2)c2ccccc21	none (no result: HCMV NEC inh)
O=C(O)c1cccc(S(=O)(=O)/N=C2/C=C(NS(=O)(=O)c3ccccc3)C(=O)c3ccccc32)c1	GIV-Gai inh 63 (no result: HCMV NEC inh) | GIV Gai FP conf inactive | GIV-Gai AS conf 12814
CC1=NN(c2ccc3c(S(=O)(=O)O)cc(S(=O)(=O)O)cc3c2)C(=O)C1	GIV-Gai inh 51 (no result: HCMV NEC inh) | GIV Gai FP conf 43 | GIV-Gai AS conf 4060
CC1=NN(c2ccc(N)cc2)C(=O)C1	none
Cc1cc(C)cc(NC(=O)CCc2c(C)nn(-c3ccc4nnc(C)n4n3)c2C)c1	none (no result: HCMV NEC inh)
CC1CCN(S(=O)(=O)c2c[nH]c(-c3nnc(C(=O)N4CCOCC4)o3)c2)CC1	none (no result: HCMV NEC inh)
Oc1cc2c(cc1C(c1ccc(C(F)(F)F)cc1)N1CCN(c3ccccc3)CC1)OCO2 (stereo not drawn)	none (no result: GIV-Gai inh)
COc1ccc(-n2c(-c3ccc(Br)cc3)nc3cc4c(cc32)OCO4)cc1	none (no result: HCMV NEC inh)
CCOc1ccc(CSc2ncn[nH]2)cc1	none
O=C1C(Sc2ncn[nH]2)=C/C(=N/S(=O)(=O)c2cccs2)c2ccccc21	GIV-Gai inh 18, HCMV NEC inh 51 | GIV Gai FP conf 40 | GIV-Gai AS conf 4995
O=C1C(Sc2ncn[nH]2)=C/C(=N/S(=O)(=O)c2ccc(F)cc2)c2ccccc21	GIV-Gai inh 3.7 | GIV Gai FP conf 36 | GIV-Gai AS conf 5053
O=C(O)C(Sc1ncn[nH]1)c1ccccc1 (stereo not drawn)	none (no result: GIV-Gai inh)
CCOc1ccc(S(=O)(=O)/N=C2/C=C(Sc3ncn[nH]3)C(=O)c3ccccc32)cc1	GIV-Gai inh 11 | GIV Gai FP conf 32 | GIV-Gai AS conf 6312
O=S(=O)(Nc1cc(Sc2ncn[nH]2)c(O)c2ccccc12)c1cccs1	none
COc1ccccc1OCc1ccoc1C(=O)O	GIV-Gai inh 82 | GIV Gai FP conf inactive | GIV-Gai AS conf 18278
COc1ccc(C(=O)NCc2ccoc2C(=O)O)cc1	none (no result: GIV-Gai inh)
Cc1cc2c(cc1S(=O)(=O)N(CC(C)C)CC(C)C)OCC(=O)N2	none
O=C(NCCn1ccc2ccccc21)C1CC1	none (no result: GIV-Gai inh)
COCCn1c(=NC(=O)c2ccc3c(c2)OCCO3)sc2cc(NC(C)=O)ccc21	GIV-Gai inh 80 (no result: HCMV NEC inh) | GIV Gai FP conf inactive | GIV-Gai AS conf inactive
CCOCCn1c(=NC(=O)c2ccc3c(c2)OCCO3)sc2cc(OCC)ccc21	none (no result: HCMV NEC inh)
COc1cccc(CNC(=O)c2c3c(nc4ccccc24)C(=O)N(C2CCCCC2)C3)c1	none (no result: HCMV NEC inh) | GIV Gai FP conf inactive | GIV-Gai AS conf inactive
COc1ccc(CNC(=O)c2c3c(nc4ccccc24)C(=O)N(C2CCCCC2)C3)cc1	none (no result: HCMV NEC inh)
CCn1nc(N)c2c(O)[nH]c(=O)cc21	GIV-Gai inh 41 (no result: HCMV NEC inh) | GIV Gai FP conf 34 | GIV-Gai AS conf 25115
CCN(CC)C(=O)CSc1nc(N)cc(=O)[nH]1	none (no result: GIV-Gai inh)
O=C(CC1(C(=O)O)CCCC1)NC1CC1	none (no result: GIV-Gai inh)
C=CCNc1cc(C)nc2nncn12	none (no result: HCMV NEC inh)
O=C1/C(=C\c2cccnc2)SC(=S)N1C1CCS(=O)(=O)C1 (stereo not drawn)	none | GIV Gai FP conf inactive | GIV-Gai AS conf inactive
